# Test results as given in PubChem BioAssay AID493056 (National Center for Advancing Translational Sciences (NCATS), 2011).
# Sequences of proteins named here, by UniProt entry; tags and fusion partners are left off.
# UniProt P34981, whole entry: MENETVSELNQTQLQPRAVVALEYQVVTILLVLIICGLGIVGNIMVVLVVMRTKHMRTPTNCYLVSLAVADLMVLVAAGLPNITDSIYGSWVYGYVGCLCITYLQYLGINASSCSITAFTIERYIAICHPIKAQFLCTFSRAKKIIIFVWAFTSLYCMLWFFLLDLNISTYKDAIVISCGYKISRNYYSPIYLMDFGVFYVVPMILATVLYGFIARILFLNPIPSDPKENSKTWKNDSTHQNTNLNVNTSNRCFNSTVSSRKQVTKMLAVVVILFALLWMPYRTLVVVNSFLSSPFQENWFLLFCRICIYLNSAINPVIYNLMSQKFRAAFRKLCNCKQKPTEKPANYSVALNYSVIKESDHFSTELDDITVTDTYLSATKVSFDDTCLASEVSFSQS
# The entries are a selection whose mix differs from that of the whole data set. The source made the active and inactive calls. No stated cut-off is given here; in the data, active means enhancement above about 30%; inactive means the rest.
# Molecular target: Thyrotropin-releasing hormone receptor (Homo sapiens) (UniProt P34981)
# Experiment: qHTS for Small Molecule Agonists and Allosteric Enhancers of Human TRH Receptor: Primary Screen for Enhancers; further: 0% is about no effect
# Conditions: TRHR cells, fluo-8 calcium fluorescence, EC20 TRH enhancement; at 2 µM; hits give high values
# Excerpt: NIH Chemical Genomics Center [NCGC] NIH Molecular Libraries Probe Centers Network [MLPCN] MLPCN Grant: MH089816-01 Assay Submitter (PI): Marvin Gershengorn This project aims to identify small drug-like molecules that activate (agonists) the thyrotropin releasing hormone (TRH) receptor (TRHR) or enhance its TRH-stimulated activity (allosteric enhancers). TRHR, a drug-accessible cell surface receptor expressed in specific brain regions, and its ligand TRH have been implicated in several central nervous system disorders, including depression and anxiety. Small molecule TRHR agonists or allosteric enhancers that are metabolically stable and able to cross the blood-brain barrier might serve as probes to elucidate the roles of brain TRH receptors in animal models, and might be valuable as lead compounds for the development of drugs to treat patients with central nervous system disorders. Upon TRHR-Gq activation in TRHR cells, intracellular calcium is released from stores in the endoplasmic reticulum. […] This primary screen measures compound-induced enhancement of an EC20 stimulation of the receptor by its native ligand.
# For the HTS assay freshly prepared cells are plated at a density of 2000/well in 3 ul of complete DMEM medium containing 10% serum in 1536-well plates and cultured over night at 37 C in a humidified incubator with 5% CO2. The next day, 2 ul of a no wash calcium dye (ABD Bioquest) was added to the cells and plates were incubated at room temperature for 1 hour. For the assay, assay plates were loaded into the FDSS kinetic plate reader. A 10 cycle (1 second/cycle) baseline measurement is taken and then the FDSS online 1536 pintool delivers 23 nl of compound library (as well as TRH controls) to the plate. The plate is measured for kinetically at 1 cycle/sec for 180 seconds and is considered to be the agonist portion of the assay (eg, compounds which activate a positive calcium response during this portion are flagged as potential agonists). Following the 180 second read, 1 ul of either an EC20 (positive modulation assay) is delivered by an onboard pipette head. Measurements are taken kinetically for an additional 180 seconds. TRHR FDSS Screening Protocol 1. Reagent, 3 uL 2000 cells/well 1536 TC treated Black plate in media containing 10% FCS 2. Time, 18 hours, 33.5C 5% CO2 (cells grown at 37C) 3. Reagent, 2 uL ABD fluo-8 Ca dye 4. Time, 30 min-1.5hrs hours, Room temp (6 plates/batch) 5. Detector, EX 480/EM 530C, FDSS 10 cycles baseline (1sec/cycle) 6. Compound, 23 nL of stock solution from library 7. Detector, EX 480/EM 530C, FDSS 230 cycles (1sec/cycle) Agonist mode 8. Compound, 1 ul EC20 of TRH made up in HEPES HBSS, 10 nM final 9. Detector, EX 480/EM 530C, FDSS 100 cycles (1sec/cycle) Potentiator mode
row,Compound,enhancement
1,CN(C)CCOC(=O)C(O)(c1ccccc1)C1CCCC1 (stereo unspecified),inactive: -12.6%
2,Cc1c(NP(C)(=O)Oc2ccc(C(C)C)cc2)c(=O)n(-c2ccccc2)n1C (stereo unspecified),inactive: 5.79%
3,O=[N+]([O-])c1cc([N+](=O)[O-])c(Nc2ccccn2)c([N+](=O)[O-])c1,inactive: 9.68%
4,CP(=O)(Nc1ccccn1)Oc1ccccc1 (stereo unspecified),inactive: 10.3%
5,COc1ccccc1OP(C)(=O)Nc1ccc(C)cc1C (stereo unspecified),inactive: -3.48%
6,CCc1ccc(OP(C)(=O)O)cc1,inactive: -7.79%
7,Cc1cc(C)cc(OP(C)(=O)Nc2cccc(C(F)(F)F)c2)c1 (stereo unspecified),inactive: 1.75%
8,COc1ccccc1OP(C)(=O)Nc1ccc(C)c(C)c1 (stereo unspecified),inactive: 4.42%
9,COc1ccc(OP(C)(=O)Nc2ccccc2Br)cc1 (stereo unspecified),inactive: -3.88%
10,Cc1nc2ccc3ccccc3c2o1.O=[N+]([O-])c1cc([N+](=O)[O-])c(O)c([N+](=O)[O-])c1,inactive: 0.209%
11,CP(=O)(Nc1ccc(Cl)cc1Cl)Oc1ccccc1 (stereo unspecified),inactive: -0.773%
12,CP(=O)(OCCOc1ccccc1)OCCOc1ccccc1,inactive: 1.56%
13,CCOC(=O)c1ccc(NP(C)(=O)Oc2ccc(Cl)cc2)cc1 (stereo unspecified),inactive: -3.39%
14,CP(=O)(OC12CC3CC(CC(C3)C1)C2)OC12CC3CC(CC(C3)C1)C2,inactive: 7.44%
15,CCN(CC)CC(O)COC(=O)C(O)(c1ccccc1)C1CCCCC1 (stereo unspecified),inactive: 0.798%
16,COc1ccc(OP(C)(=O)Nc2ccc(Br)cc2)cc1 (stereo unspecified),inactive: -2.29%
17,COc1ccccc1OP(C)(=O)Nc1c(C)n(C)n(-c2ccccc2)c1=O (stereo unspecified),inactive: 1.29%
18,O=C(OCCCN1CCCC1)C(O)(c1ccccc1)C1CCCCC1 (stereo unspecified),inactive: 6.51%
19,CP(=O)(Oc1ccccc1)N1CCOC1=O (stereo unspecified),inactive: 1.17%
20,CCc1ccc(OP(C)(=O)Nc2cccnc2)cc1 (stereo unspecified),inactive: -1.46%
21,COc1ccccc1OP(C)(=O)Nc1ccccc1Br (stereo unspecified),inactive: -1.64%

row,Compound,enhancement
1,CC(C)(C)c1ccc(OP(C)(=O)O)cc1,inactive: -10.2%
2,CP(=O)(Nc1ccc(Cl)cc1)Oc1ccc(F)cc1 (stereo unspecified),inactive: 6.95%
3,CN(C)C(=O)c1c([N+](=O)[O-])cc([N+](=O)[O-])cc1[N+](=O)[O-],inactive: -2.33%
4,CP(=O)(Nc1ccc(SC(F)(F)F)cc1)Oc1ccc(F)cc1 (stereo unspecified),inactive: 12.3%
5,CCOP(C)(=S)SCC(=O)NC(C)(CC)C(=O)O (stereo unspecified),inactive: -1.09%
6,CP(=O)(Nc1ccc2c(c1)OCCO2)Oc1ccccc1 (stereo unspecified),inactive: -0.369%
7,Cc1ccccc1NP(C)(=O)Nc1ccccc1C,inactive: 0.592%
8,COc1ccc(OP(C)(=O)Nc2cccc(Br)c2)cc1 (stereo unspecified),inactive: -0.827%
9,CN(C)CCOC(=O)C(O)(c1ccccc1)C1CCCCC1 (stereo unspecified),inactive: -4.87%
10,COc1ccc(NP(C)(=O)Oc2ccccc2OC)cc1 (stereo unspecified),inactive: 1.86%
11,O=[N+]([O-])c1ccc(OP2(=O)COCCO2)cc1 (stereo unspecified),inactive: 7.86%
12,Cc1cc(-c2cccc3ccccc23)c(C)cn1.O=[N+]([O-])c1cc([N+](=O)[O-])c(O)c([N+](=O)[O-])c1,inactive: -2.14%
13,CCOC(=O)c1ccc(NP(C)(=O)Oc2ccc(F)cc2)cc1 (stereo unspecified),inactive: 15.6%
14,COc1ccc(OP(C)(=O)Nc2ccc(SC(F)(F)F)cc2)cc1 (stereo unspecified),inactive: 2.68%
15,CCN(CC)CCCOC(=O)C(O)(c1ccccc1)C1CCCCC1 (stereo unspecified),inactive: -15.5%
16,CP(=O)(Nc1ccccc1)Oc1ccc(F)cc1 (stereo unspecified),inactive: 2.03%
17,CCCCCOc1ccc(NP(C)(=O)Oc2ccc(Cl)cc2Cl)cc1 (stereo unspecified),inactive: -3.1%
18,CP(=O)(Nc1ccccc1F)Oc1ccccc1 (stereo unspecified),inactive: -6.25%
19,CC(C)c1ccc(OP(C)(=O)Nc2ccc(SC(F)(F)F)cc2)cc1 (stereo unspecified),inactive: 1.68%
20,O=C(OCCN1CCN(CCOCc2ccccc2)CC1)C(O)(c1ccccc1)c1ccccc1,inactive: -1.86%
